Data reported in EP1731520A1.

Amino acid sequences for entries named in this document (tags omitted).
UniProt P29275, whole entry: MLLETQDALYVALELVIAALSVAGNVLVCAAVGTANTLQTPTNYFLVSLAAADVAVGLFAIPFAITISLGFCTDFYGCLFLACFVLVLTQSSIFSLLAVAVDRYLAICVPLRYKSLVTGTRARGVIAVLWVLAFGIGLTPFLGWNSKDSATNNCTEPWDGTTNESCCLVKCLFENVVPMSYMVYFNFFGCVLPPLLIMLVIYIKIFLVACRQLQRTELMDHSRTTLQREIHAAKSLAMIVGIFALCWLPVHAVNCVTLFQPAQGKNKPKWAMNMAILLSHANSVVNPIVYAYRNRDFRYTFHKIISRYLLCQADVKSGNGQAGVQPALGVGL

Biological target: human A2b receptor subtype (Homo sapiens, UniProt P29275)
Test: Adenosine 2b receptor subtype competition radioligand binding, [3H] DPCPX, HEK293 membranes
Conditions: read-out: Binding Ki (nM) A2b; Table 13

- Ki: 168 nM
SMILES: Cc1cc2c(N[C@H]3CC[C@H](O)CC3)nc(-c3ccccc3)nc2[nH]1 (relative stereo)
